Paper PMC2935290 (Journal of immunology (Baltimore, Md. : 1950), 2010)

Target: T1, HLA-DPB1*0402 (Homo sapiens, UniProt P04440+P20036, A65V/A84D/A85E/L207M)
T1 sequence (P04440 30-258 A65V/A84D/A85E): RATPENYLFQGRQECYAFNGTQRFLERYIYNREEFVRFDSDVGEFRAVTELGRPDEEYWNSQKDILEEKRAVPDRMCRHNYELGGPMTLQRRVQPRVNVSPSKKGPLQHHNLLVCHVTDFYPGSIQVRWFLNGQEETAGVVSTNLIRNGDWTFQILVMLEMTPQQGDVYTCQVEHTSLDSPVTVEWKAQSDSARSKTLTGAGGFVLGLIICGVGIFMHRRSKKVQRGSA
T1 sequence (P20036 29-260): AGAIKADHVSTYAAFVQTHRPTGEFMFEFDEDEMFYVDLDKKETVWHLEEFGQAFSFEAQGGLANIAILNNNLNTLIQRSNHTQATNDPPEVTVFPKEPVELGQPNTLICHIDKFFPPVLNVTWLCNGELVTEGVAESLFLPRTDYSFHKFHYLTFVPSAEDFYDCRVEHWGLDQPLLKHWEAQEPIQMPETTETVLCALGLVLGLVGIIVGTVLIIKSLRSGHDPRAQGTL
Assay: biochemical
Type: binding

Structure (SMILES): CC[C@H](C)[C@H](NC(=O)[C@@H](NC(=O)[C@H](CO)NC(=O)CNC(=O)[C@H](Cc1ccc(O)cc1)NC(=O)[C@H](CC(N)=O)NC(=O)[C@@H](N)CC(N)=O)[C@@H](C)O)C(=O)N[C@@H](CCC(=O)O)C(=O)NCC(=O)N[C@@H](CC(C)C)C(=O)N[C@@H](CC(C)C)C(=O)N[C@@H](CC(=O)O)C(=O)O
- IC50: 5.87 µM
